Chains of the proteins cited; added tags and fusions are not shown.
UniProt P35372, whole entry: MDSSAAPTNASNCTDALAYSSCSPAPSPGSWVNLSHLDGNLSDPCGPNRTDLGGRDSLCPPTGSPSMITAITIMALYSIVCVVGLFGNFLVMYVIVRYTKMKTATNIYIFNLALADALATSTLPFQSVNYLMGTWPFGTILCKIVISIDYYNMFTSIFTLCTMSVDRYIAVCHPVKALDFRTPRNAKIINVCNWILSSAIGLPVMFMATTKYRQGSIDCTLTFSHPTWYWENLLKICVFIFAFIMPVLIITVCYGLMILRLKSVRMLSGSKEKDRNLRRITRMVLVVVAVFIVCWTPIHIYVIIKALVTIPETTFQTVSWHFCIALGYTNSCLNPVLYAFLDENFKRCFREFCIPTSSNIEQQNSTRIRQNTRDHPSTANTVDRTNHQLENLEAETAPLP

According to patent US8404740B2, “Spirocyclic cyclohexane compounds” (dated 2013):

Key:
[1] = system: mouse; assay: Analgesia test in the tail-flick test in the mouse
[2] = target: human μ-opiate receptor (Homo sapiens, UniProt P35372); assay: Measurement of μ binding ([3H]-naloxone, CHO-K1 membrane preparation); details: test substance 1 μmol/liter

Row | Compound | Tail-flick mouse i. v. % inhibition [10 μg/kg) [1] [%] | further results
1 | CCCCC1(N(C)C)CCC2(CC1)c1[nH]c3ccccc3c1CCN2C(C)=O (centres unmarked) | 75 | 
2 | CN(C)C1(C2CCCC2)CCC2(CC1)OCCc1c2[nH]c2ccccc12 (centres unmarked) | 90 | 
3 | COCCCC1(N(C)C)CCC2(CC1)NCCc1c2[nH]c2ccccc12 (centres unmarked) |  | μ % inhibition [1 μM] [2]: 26%
4 | CCC1(N(C)C)CCC2(CC1)OCCc1c2[nH]c2ccccc12 (centres unmarked) |  | Tail-flick mouse i. v. % inhibition ([1]; 100 μg/kg): 90% (100 μg/kg)
5 | CCCCC1(N(C)C)CCC2(CC1)OCCc1c2[nH]c2ccc(F)cc12 (single isomer, unassigned) | 60 | 
